Values of other authors as cited in paper PMC4631615 (Bipolar disorders, 2015).

Tested on: pregnant women
Conditions: human, first trimester exposure, meta-analysis; cited from earlier work

SMILES | Malformation rate
Cc1cc2c(s1)Nc1ccccc1N=C2N1CCN(C)CC1 [OLA, 2-methyl-4-(4-methyl-1-piperazinyl)-10H-thieno(2,3-b)([1],[5])benzodiazepine] | 3.5%
Cc1nc2n(c(=O)c1CCN1CCC(c3noc4cc(F)ccc34)CC1)CCCC2 [RIS, 3-(2-(4-(6-fluoro-1,2-benzisoxazol-3-yl)piperidino)ethyl)-6,7,8,9-tetrahydro-2-methyl-4H-pyrido(1,2-a)pyrimidin-4-one] | 5.1%
